The subject of the experiment is T. b. brucei. In words: Antitrypanosomal assay, T. brucei Squib 427, resazurin viability.

In the case of `CC(C)c1n[nH]c2c(=O)[nH]c(-c3ccc(Br)cc3)nc12` [compound 32, 5-(4-Bromophenyl)-3-isopropyl-1,6-dihydro-7H-pyrazolo[4,3-d]pyrimidin-7-one], where the note is “relative to 30”, the “reduction in potency against T. b. brucei compared with 30” value is given as “four-fold reduction in potency”.

`COc1ccc(-c2nc3c(C(C)C)n[nH]c3c(=O)[nH]2)cc1` [compound 33, 3-Isopropyl-5-(4-methoxyphenyl)-1,6-dihydro-7H-pyrazolo[4,3-d]pyrimidin-7-one]: the “reduction in potency against T. b. brucei compared with 15” value (relative to 15) was “three times less active”.
